Laboratory results published in ChEMBL document CHEMBL1135091, “Thrombin active site inhibitors: chemical synthesis, in vitro and in vivo pharmacological profile of a novel and selective agent BMS-189090 and analogues” (Bioorg Med Chem Lett, 2002).

Assays:
Prothrombin [1] = target: T1, Prothrombin (Homo sapiens, UniProt P00734)
Prothrombin [2] = target: T1, Prothrombin; assay: In vitro inhibition of thrombin catalytic activity using s-2238 substrate at 10 uM was measured at […] after 3 min incubation with compound; type: functional

Row | IC50 (Prothrombin [1]) | Structure (SMILES) | IC50 (Prothrombin [2])
1 | 27 µM | C[C@@H]1CCN(C(=O)CNS(=O)(=O)c2ccc3ccccc3c2)[C@@H](C(=O)NCCCCN=C(N)N)C1 | 
2 | 14 µM | N=C(N)NCCCCCCC(=O)NC[C@@H]1CCCN1C(=O)[C@H](CO)NS(=O)(=O)c1ccc2ccccc2c1 | 
3 |  | CC1CNc2c(cccc2S(=O)(=O)N[C@@H](CCCNC(=N)N)C(=O)N2CC[C@@H](C)CC2C(=O)O)C1 (single isomer, unassigned) [ARGATROBAN] | 0.038 µM
